In data set [1] the test system is constitutively high plasma ACTH in Mrap1 KO mice. In words: Mrap1 KO mice constitutively high ACTH model. In kind it is in vivo, mouse. Particulars: for plasma ACTH concentrations in Mrap1 KO mice: single dose 20 mg/kg. On the procedure:
(§1) 8-10 week old wildtype female C57BL/6 mice were obtained from Charles River Laboratories. Mrap1 KO mice were obtained from Queen Mary University of London, UK. SSR125543A, a small molecule CRHR1 antagonist, was obtained from Axon Medchem (Cat #Axon 1799). Mouse Corticosterone (55-Corms-E01) and adrenocorticotropic hormone (ACTH) ELISA kits (21-ACTHU-E01) were obtained from ALPCO, USA. All procedures were carried out in accordance with the Guide for the Care and Use of Laboratory Animals of the National Institutes of Health. Protocols were approved by Charles River Laboratories Institutional Animal Care and Use Committee (IACUC).
To generate Mrap1 KO mice, Mrap1−/− male mice were bred with Mrap1+/− female mice. Corticosterone hormone replacement was performed by administering 50 μg/ml in drinking water to breeder cages when female mice were pregnant and their pregnancies palpable (approximately embryonic day 10). Drinking water was changed weekly, and treatment was stopped at weaning. Mice were uniquely identified with ear tags at the time of tail clipping to match future genotype with each mouse. DNA was extracted from tail tissue and used to genotype mice.
[…] On day 2 or 3, 14 and 28, 200 μl of blood was collected in EDTA tubes from the submandibular vein of each mouse. Plasma was separated using a refrigerated centrifuge (4° C. at 500×g for 10 min) and snap-frozen in dry ice for subsequent ACTH ELISA measurement.

Protein sequences, listed by entry. Tags and fused reporters are not part of them. Residues count along the entry.
UniProt P06850, 171-194: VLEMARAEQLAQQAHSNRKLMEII
UniProt P06850, 168-187: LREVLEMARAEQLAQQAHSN

Data set [2] deals with T1, N-terminal region plus central region, central region only, central region plus C-terminal region of CRH (Homo sapiens, UniProt P06850).
T1 construct: N-terminal region plus the central region (CT biotin), the central region only (NT biotin or CT biotin)
Description: ELISA determining the binding region of CRH. Particulars: dash = no binding. On the procedure:
Streptavidin (Thermo, Cat: 21125) was diluted in PBS to a concentration of 2 μg/ml. 100 μl of diluted streptavidin was added per well to ELISA microplates, and the plates were incubated overnight at 4° C. Plates were blocked with ELISA blocking solution (containing 2% w/v BSA, 0.05% (v/v) Tween-20, pH 7.4 PBS buffer) at 37° C. for 1 hour, and then incubated with 1 μg/mL N-terminal region plus the central region (CT biotin), the central region only (NT biotin or CT biotin), or the central region plus C-terminal region (NT biotin) of CRH for 1 hour at 37° C. Plates were then washed and incubated with diluted anti-CRH antibody (Ab) at 15 μg/ml (100 nM, 10 diluted, 8 points) for 1 hour at 37° C. Subsequently, plates were washed and incubated with HRP-conjugated goat anti-human IgG (H+L) antibody (Jackson, Cat: 109-035-088) at 37° C. for 1 hour. 100 μL of 3,3′,5,5′-tetramethylbenzidine (TMB) substrate (Biopanda, Cat: TMB-S-003) was added, and the plates were incubated at room temperature for 15 minutes. 100 μL of ELISA stopping solution (Solarbio, Cat #: C1058) was added to terminate the reaction, and the optical density at 450 nm (OD450 nm) was determined by an ELISA plate reader (Molecular Devices, Spectra max 384 plus).

Data set [3] can be described thus: In vivo PK study in female C57BL/6 mice. Further details: species or system mouse. The settings on record: single IV dose 5 mg/kg. On the procedure:
For each antibody tested, 6 female C57BL/6 mice with a weight of 18-22 grams were selected, and antibody was administered intravenously at a single dose of 5 mg/kg. Whole blood was collected from 3 mice before and 15 minutes, 24 hours (1 day), 4, and 10 days after administration. Whole blood from the remaining 3 mice was collected before and 5 hours, 2, 7, and 14 days after administration. Whole blood was allowed to stand for 30 minutes to coagulate and then centrifuged. Separated serum was then frozen at −80° C. until analysis.
ELISA was used to quantitatively determine the drug concentration in mouse serum. Tested antibodies (with human Fc) in mice serum were captured by goat anti-human Fc polyclonal antibody (Rockland, #609-101-017) pre-coated on a 96-well plate. HRP-labeled goat anti-human (H+L) secondary antibody (Abcam, #ab97175) was then added into the wells. Plates were then sealed and incubated at 37° C. for 30 minutes, followed by washing and adding TMB substrate and ELISA stopping solution. 96-well plates were read at 450/630 nm wavelength using SpectraMax M2. Data was processed by Soft Max Pro.
Pharmacokinetic (PK) parameters were analyzed by Phoenix WinNonlin version 8.2 with non-compartmental model (NCA).

In data set [4] the test system is restraint-induced ACTH and corticosterone. In words: Wildtype mice restraint-stress model (ACTH and corticosterone). The data set is classed as in vivo, mouse. On the procedure:
as §1
To determine the effect of nonpainful physical restraint upon stress responses, mice were restrained in 50 ml polypropylene ventilated tubes in which the tip was cut off with a razor blade to allow the mouse to breathe easily for 15-20 minutes. A mouse was directed to the open tube and crawled in. A piece of paper towel was put behind the mouse so that it could not back out, and the cap was screwed on. The mouse was placed back in its cage, ventral size down on the bedding. This stressor is not considered painful, as mice are confined to a limited space (in a ventilated restraint tube) but not in an unnatural physical position. The investigator was present in the room during the entire procedure. At the end of the procedure, the mouse was removed by the tail.
On day 1, each mouse was injected intraperitoneally with 20 mg/kg of anti-CRH mAbs, hIgG1 or PBS (5 mice per group). On day 2 or 3, and 14 each mouse was subjected to physical restraint-stress described above for 15 or 20 min. Immediately after restraint-stress, 200 μl of blood was collected in EDTA tubes from the submandibular vein of each mouse. Plasma was separated using a refrigerated centrifuge (4° C. at 500×g for 10 min) and snap-frozen in dry ice for subsequent ACTH and corticosterone ELISA measurement.
On day 1, one half of mice were injected IP with 20 mg/kg of anti-CRH Ab or hIgG1 (5 mice per group). On day 3, the other half of mice were injected IP with 30 mg/kg of SSR125543A or solvent (5 mice each group). Two hours later, four groups of mice were subjected to restraint-stress as described above for 20 min. Immediately after restraint-stress, 200 μl of blood was collected in EDTA tubes from the submandibular vein of each mouse in all four groups. Plasma was separated as described above and snap-frozen in dry ice for subsequent ACTH and corticosterone ELISA measurement. On day 4, SSR125543A or solvent-treated mice were subjected to a second round of restraint stress for 20 min and plasma was collected. Two weeks later, anti-CRH mAb- or hIgG1-treated mice were subjected to physical stress for 20 min followed by plasma collection.

The mark [5] stands for this setting: restraint, 20 mg/kg IP, Day 1 post-mAb dosing.
Setting [6] is: restraint, fourteen days after a single dose 20 mg/kg IP.

As a reminder, the EC50 is the concentration that produces a half-maximal response.

Positions count from the first letter of the chain named. Like-named read-outs stand apart in the source and are kept apart here.

B1: PR302341-28: Series 10 humanized, PTM-removed anti-CRH mAb (Table 9), scaled up for in vivo studies (antibody)
heavy: QVQLVQSGAEVKKPGASVKVSCKASGYTFTDYFMKWVRQAPGQGLEWMGVINPNQGDIFYNQKFKGRVTMTVDKSISTAYMELSRLRSDDTAVYYCARGTDRALFAYWGQGTLVTVSSASTKGPSVFPLAPSSKSTSGGTAALGCLVKDYFPEPVTVSWNSGALTSGVHTFPAVLQSSGLYSLSSVVTVPSSSLGTQTYICNVNHKPSNTKVDKKV[human IgG1 Fc not listed]
light: DVVMTQSPLSLPVTLGQPASISCRSGQSIVHSDGNTYLEWYQQRPGQSPRLLIYKVSNRFSGVPDRFSGSGSGTDFTLKISRVEAEDLGVYYCFQGSHIPWTFGGGTKVEIKRTVAAPSVFIFPPSDEQLKSGTASVVCLLNNFYPREAKVQWKVDNALQSGNSQESVTEQDSKDSTYSLSSTLTLSKADYEKHKVYACEVTHQGLSSPVTKSFNRGEC
For B1, the “plasma ACTH concentrations in Mrap1 KO mice” value in data set [1] was “markedly reduced”.

B2: PR005660: ΔPTM variant of Series 1 mAb PR004290; HCDR2 54EG55, LCDR1 36QS37 (antibody)
heavy: EVQLVESGGVLVQPGGSLRLSCAASGFTFSSYWMTWVRQAPGKGLEWVANIKQEGSEKYYVDSVKGRFTISRDNAKNSLFLQMNSLRAEDTAVYYCARTLIFDYWGQGTLVTVSSASTKGPSVFPLAPSSKSTSGGTAALGCLVKDYFPEPVTVSWNSGALTSGVHTFPAVLQSSGLYSLSSVVTVPSSSLGTQTYICNVNHKPSNTKVDKKV[human IgG1 Fc not listed]
light: DIVMTQSPLSLPVTPGEPASISCRSSQSLLHSTGYQSLEWYLQKPGQSPQLLIYLGSNRASGVPDRFSGSGSGTDFTLKISRVEAEDVGIYYCMQTLQTPITFGQGTRLEIKRTVAAPSVFIFPPSDEQLKSGTASVVCLLNNFYPREAKVQWKVDNALQSGNSQESVTEQDSKDSTYSLSSTLTLSKADYEKHKVYACEVTHQGLSSPVTKSFNRGEC
For B2, the half-maximal effective concentration (EC50) was greater than 100 nM in data set [2] (central plus C-terminal region CRH peptide, NT-biotin (SEQ ID NO: 483), read-out: ELISA EC50 C-Ter-CRH (NT-Bion)); greater than 100 nM in data set [2] (central region CRH peptide, CT-biotin (SEQ ID NO: 485), read-out: ELISA EC50 Central-CRH (CT-Bion)); greater than 100 nM in data set [2] (central region CRH peptide, NT-biotin (SEQ ID NO: 484), read-out: ELISA EC50 Central-CRH (NT-Bion)). Moreover, the “ACTH in Mrap1 KO mice” value in data set [1] (5 mg/kg, post-dosing days 2 and 16) was “significantly reduced”. For the same molecule, in data set [1] (20 mg/kg and 5 mg/kg, day 2 and day 16), the “plasma ACTH concentrations in Mrap1 KO mice, dose dependence” value is recorded as “reduced plasma ACTH concentrations in Mrap1 KO mice, in a dose dependent manner”. For the same molecule, the “plasma ACTH concentrations in Mrap1 KO mice” value in data set [1] is reported as “significantly reduced”.

B3: PR004290: Series 1 anti-CRH mAb from hybridoma clone 28b3 (CRH knockout H2L2 mice), recombinant with human IgG1 wildtype Fc (antibody)
heavy: B2 heavy with E54D
light: B2 light with Q36N
On to B3, for which, in data set [3] (C57BL/6 wildtype mice), the “serum half-life (T1/2)” value was 14 days. In data set [3] (female C57BL/6 wildtype mice), the AUClast was determined as 18785 ± 1414 µg·h/mL, the C0 was 141 µg/mL, the CL_pred came out at 0.202 mL/h/kg and the T1/2 came to 14.1 days. In addition, the “Vss—pred” value in data set [3] (female C57BL/6 wildtype mice) came to 94.4 mL/kg. In addition, in data set [4] (20 mg/kg IP), the “restraint-induced ACTH concentrations” value was “markedly inhibited” and the restraint-induced corticosterone concentrations result is on record as “markedly inhibited”. Besides, in data set [4] (setting [5]), the “plasma ACTH concentrations” value is “down to basal unstressed levels” and the plasma corticosterone concentrations result is listed as “down to basal unstressed levels”. Besides, in data set [4] (setting [6]), the ACTH concentrations result is “remained partially inhibited” and the corticosterone concentrations result is recorded as “remained partially inhibited”.

For the origin of these results see patent US20260042834A1, “ANTI-CORTICOTROPIN-RELEASING HORMONE ANTIBODIES AND POLYCYSTIC OVARY SYNDROME” (HBM ALPHA THERAPEUTICS, INC., priority 2022, published 2026).
